Test results reported in patent publication US20050100897A1, “NFAT transcription factors in tumor progression” (priority 2002, published 2005).

How the values were obtained:
[1] = system: Clone A colon cancer cell line; experiment: Matrigel chemoinvasion assay, Clone A cells; assay type: cell-based, human; details: transient transfection
From the text: FIGS. 3A-3C show the role of NFAT-5 in mediating carcinoma invasion. FIG. 3A is a graph showing luciferase levels in MDA-MB-435 cells expressing vector alone, β4.ΔCYT (3C12), or wild-type β4^+ (3A7 clone) that were transiently transfected with an NFAT-5-luciferase reporter construct (NFAT-5-luc). Luciferase activity is shown as relative luciferase units. […] The lysates were resolved by SDS PAGE and immunoblotted with anti-NFAT-5 (α-NFAT-5, top panel) or anti-p85 (α-p85, bottom panel) The position of the 175 kDa and 90 kDa markers are indicated (left). […] The ability of the transfected cells to invade Matrigel was then assayed and the data are shown as the relative invasion of NFAT-5-transfected cells compared to vector alone-transfected cells (100%).
Invasion assays were performed using standard methods (see Shaw et al., Cell 91:949-960, 1997) using Transwell chambers coated with Matrigel. […] Cells that stained positive for β-galactosidase expression were counted, and the mean of triplicate assays for each experimental condition was used as % relative invasion. […]

[2] = system: MDA-MB-435 β4+-expressing cells (3A7); experiment: Matrigel chemoinvasion assay, MDA-MB-435 β4+ transfectants; assay type: cell-based, human

VIVIT peptide: peptide (SEQ ID NO:18) which blocks the ability of calcineurin to dephosphorylate and activate NFAT; transfected as GFP-VIVIT (MAGPHPVIVITGPHEE; listed as Homo sapiens)
carcinoma invasion (relative invasion vs vector alone) [1]: blocked invasion | invasion increased by constitutively active calcineurin allele ([2]; co-transfected with VIVIT): inhibited | carcinoma invasion (relative invasion vs vector alone) ([2]; transient transfection, NIH 3T3 conditioned media as chemoattractant): reproducibly inhibited carcinoma invasion
